Columns and labels:
[1] = biological target: endogenous caspase-8 (human (endogenous in BJAB and HaCaT)) (UniProt Q14790); assay: affinity purification with mass spectrometry; native TRAIL DISC from control (vector) BJAB cells; label-free absolute quantification (TOP 3) by LC-MS/MS, n = 3
[2] = biological target: endogenous caspase-8 (human (endogenous in BJAB and HaCaT)) (UniProt Q14790); assay: affinity purification with mass spectrometry; native CD95 DISC from control (vector) HaCaT cells; label-free absolute quantification (TOP 3) by LC-MS/MS, n = 3

- fold less c-FLIPL than caspase-8 in the DISC [1]: 15 fold
- fold less c-FLIPL than caspase-8 in the DISC [2]: 15 fold
Substance: endogenous c-FLIPL (from UniProt O15519 1-480) (natural protein; other documents disagree on this pair)
